Results as given in PMC6017319, “Potent GH20 N-Acetyl-β-D-hexosaminidase Inhibitors: N-Substituted 3-acetamido-4-amino-5-hydroxymethyl-cyclopentanediols” (Molecules : A Journal of Synthetic Chemistry and Natural …, 2018).

Chains of the proteins cited; added tags and fusions are not shown. Residues count along the entry.
UniProt P06865, 89-529: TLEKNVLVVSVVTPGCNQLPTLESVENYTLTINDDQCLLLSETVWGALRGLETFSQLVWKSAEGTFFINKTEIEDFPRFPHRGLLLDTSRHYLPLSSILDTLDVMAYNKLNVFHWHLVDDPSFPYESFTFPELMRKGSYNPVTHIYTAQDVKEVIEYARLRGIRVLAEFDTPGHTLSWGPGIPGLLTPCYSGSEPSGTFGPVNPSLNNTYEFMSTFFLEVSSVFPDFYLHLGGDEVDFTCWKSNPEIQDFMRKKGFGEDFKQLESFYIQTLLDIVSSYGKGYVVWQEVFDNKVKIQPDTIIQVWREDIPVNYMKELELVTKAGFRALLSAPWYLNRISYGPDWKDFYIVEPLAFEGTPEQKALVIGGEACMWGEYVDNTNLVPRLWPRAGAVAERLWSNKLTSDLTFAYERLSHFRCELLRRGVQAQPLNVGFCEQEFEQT

Biological target: T1, human lysosomal N-acetyl-β-hexosaminidase A (Homo sapiens, UniProt P06865)
T1 construct: endogenous in cells; host or cells: human skin fibroblasts (wild type), cell homogenate
Test: Human N-acetyl-β-hexosaminidase A activity in fibroblast homogenate (4-MU N-acetyl-β-glucosaminide-6-sulfate substrate)
Format: biochemical
Details: normal human skin fibroblast homogenate, pH 4.4, 37 °C, 60 min; read-out: IC50 with human lysosomal N-acetyl-β-D-hexosaminidase A
Description: Human skin fibroblasts (wild type) were grown in minimal essential medium (MEM) with Earle’s Salts (Sigma Aldrich, St. Louis, MO, USA) containing 10% fetal bovine serum, 400 µM L-glutamine, and 50 µg/mL gentamycin at 37 °C and 5% CO2. All cells used in this study were between the third and nineteenth passages.
All inhibitors were dissolved in DMSO in a concentration of 10 mM and diluted in 10 mM phosphate buffer (pH 7.0) containing 100 mM NaCl, 0.01% NaN3, and 0.01% Triton for the IC50-measurements.
Human N-acetyl-β-hexosaminidase A activity measurements were performed in duplicate assays unless otherwise stated. Fibroblast cells of three single 80 cm^2 flasks were harvested by trypsinization in 500 µL (each of them) 0.9% NaCl containing 0.01% Triton, homogenized by sonication (4 times 15 s, Bandelin (Berlin, Germany) Sonopuls ultrasound homogenator mini 20) and centrifuged at 13.000 rpm for 1 min in a table top centrifuge (Biofuge Pico, Heraeus, Hanau, Germany). Protein amounts were determined according to the method of Lowry. […] The amount of hydrolyzed 4-methylumbelliferone was determined with a fluorescence spectrometer (F7000 Hitachi, Chiyoda, Japan). […]
Activity was measured in normal fibroblasts. […]

IC50: 62 µM
SMILES: CCc1nc(N)nc(N)c1-c1ccc(Cl)cc1 [pyrimethamine, reference compound]
